{"source": "paper PMC11547827", "about": "“Discovery of Cyclic Peptide Inhibitors Targeted on TNFα-TNFR1 from Computational Design and Bioactivity Verification” (Molecules, 2024)", "tested_on": "L929 cells", "details": "24 h, CCK-8", "experimental": "L929 cells were seeded in a 96-well plate at a density of 8000 cells per well and cultured for 24 h under standard conditions. Then, the liquid in the wells was discarded, and 100 µL of medium containing different concentrations of cyclic peptides was added. After incubation for 24 h, the liquid in the well was discarded, and the medium was replaced with CCK-8 working solution (100 μL RPMI 1640 medium containing 5% CCK-8) and incubated in the dark for 2 h. The absorbance of each well at 450 nm was detected with a microplate reader. The same operation was performed with wells not seeded with cells as a blank group to eliminate systematic errors. Cell viability was calculated according to the following formula:(7) Cell viability(%)=(ODtest−ODblank)/(ODcontrol−ODblank)×100%", "data": [{"smiles": "CC(C)C[C@@H]1NC(=O)[C@H](Cc2c[nH]cn2)NC(=O)[C@H](CC(N)=O)NC(=O)[C@H](CCC(=O)O)NC(=O)[C@H](CO)NC(=O)[C@H](C)NC(=O)[C@H]([C@@H](C)O)NC(=O)[C@H](Cc2ccccc2)NC(=O)[C@H](CO)NC(=O)CNC(=O)[C@H](CO)NC(=O)[C@H](CCC(=O)O)NC(=O)[C@@H](N)CSSC[C@@H](C(=O)O)NC(=O)[C@H](Cc2c[nH]cn2)NC(=O)[C@H](CCCNC(=N)N)NC1=O", "note": "[R1_CC4]", "values": [{"measurement": "cytotoxicity to L929 cells (in words)", "result": "no significant cytotoxicity"}]}]}
